# Measured values reported in patent US20120004307A1, “ORAL TREATMENT OF DIGITAL ISCHEMIC LESIONS” (priority 2010, published 2012).
# Conditions: oral sustained release formulation
# Description: During a phase I PK trial of oral treprostinil in SSc patients, the goal was to quantify changes in perfusion as assessed by laser Doppler imaging (LDI) and to determine whether improvements in perfusion correlated with drug concentration.
# 10 SSc patients with recent or active DU participated in the study.
# Dosing: Oral treprostinil titrated up to 4 mg twice daily (BID) as tolerated over 6-8 weeks. Pharmokinetics (PK) and laser Doppler imaging (LDI) assessments: performed when subjects achieved the 2 mg and 4 mg (or maximally tolerated dose) doses. […] 8 serial measures of digital perfusion and drug concentration were obtained over 12 hours at each of the 2 study visits.
# Repeated measures analyses were performed using random effects model. Dependent variables were perfusion and skin temperature. The predictor of interest was log-transformed drug concentration. Covariates with p-values less than 0.15 were kept in the model. All data was used, across time points, visits, and hands.
smiles,measurement,value
"CCCCC[C@H](O)CC[C@@H]1[C@H]2Cc3cccc(OCC(=O)O)c3C[C@H]2C[C@H]1O.OCCNCCO [treprostinil diethanolamine, Treprostinil diethanolamine]",oral absorption,absorbed to reach therapeutic levels
